Results taken from patent US10183939B2, “Fused bicyclic (hetero)aromatic compounds useful for the treatment of cancers” (Redx Pharma PLC, priority 2014, dated 2019).
Read-outs that look alike come from different tables or passages of the source.

The chains behind the UniProt entries cited, without tags or fusion partners. Residues count along the entry.
UniProt P15056, whole entry V600E: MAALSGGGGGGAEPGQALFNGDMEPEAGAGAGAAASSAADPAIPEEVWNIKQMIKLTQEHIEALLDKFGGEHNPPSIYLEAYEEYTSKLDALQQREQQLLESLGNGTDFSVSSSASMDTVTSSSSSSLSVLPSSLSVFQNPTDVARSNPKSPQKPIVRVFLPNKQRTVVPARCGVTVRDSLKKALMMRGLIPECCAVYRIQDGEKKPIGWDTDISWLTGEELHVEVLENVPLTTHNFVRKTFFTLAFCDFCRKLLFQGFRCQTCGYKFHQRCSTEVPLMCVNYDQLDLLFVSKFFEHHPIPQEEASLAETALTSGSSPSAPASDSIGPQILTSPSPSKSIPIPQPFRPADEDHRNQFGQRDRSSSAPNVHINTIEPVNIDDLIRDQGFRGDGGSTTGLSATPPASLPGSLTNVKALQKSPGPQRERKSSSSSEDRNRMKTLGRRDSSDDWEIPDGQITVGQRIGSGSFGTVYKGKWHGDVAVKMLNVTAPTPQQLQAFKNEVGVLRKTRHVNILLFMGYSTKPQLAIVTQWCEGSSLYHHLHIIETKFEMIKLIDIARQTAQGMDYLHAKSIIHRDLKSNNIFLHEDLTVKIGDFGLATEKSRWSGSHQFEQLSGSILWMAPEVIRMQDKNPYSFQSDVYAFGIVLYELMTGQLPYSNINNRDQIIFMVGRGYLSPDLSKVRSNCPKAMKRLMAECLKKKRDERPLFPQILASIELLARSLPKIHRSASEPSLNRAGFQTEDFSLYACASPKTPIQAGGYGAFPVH
UniProt P04049, 306-648 Y340D/Y341D: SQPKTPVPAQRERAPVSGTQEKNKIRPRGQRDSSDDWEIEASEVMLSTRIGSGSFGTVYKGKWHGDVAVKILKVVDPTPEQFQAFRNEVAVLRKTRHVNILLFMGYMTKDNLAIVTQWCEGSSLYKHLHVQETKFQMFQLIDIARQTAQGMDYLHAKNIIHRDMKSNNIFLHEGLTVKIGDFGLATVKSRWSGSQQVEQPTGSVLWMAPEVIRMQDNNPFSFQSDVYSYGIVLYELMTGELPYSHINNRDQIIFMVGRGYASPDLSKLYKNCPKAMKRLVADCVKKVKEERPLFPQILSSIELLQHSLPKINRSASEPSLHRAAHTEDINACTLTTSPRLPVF

Key:
[1] = target: B-RAF^V600E kinase (Homo sapiens (Human), UniProt P15056, V600E); experiment: LanthaScreen Eu kinase binding assay (B-RAF V600E); settings: tracer 178 competition, 5 hours
[2] = target: C-RAF Y340D/Y341D kinase (Homo sapiens (Human), UniProt P04049, Y340D/Y341D); experiment: LanthaScreen Eu kinase binding assay (C-RAF); settings: tracer 178 competition, 5 hours
Procedure: LanthaScreen™ Eu kinase binding assay
To determine whether compounds bind to RAF kinases, they are tested in a competition binding assay. The Invitrogen LanthaScreen™ Eu binding assay involves the binding of an Alexa-Fluor® 647-labelled, ATP-competitive kinase tracer to the kinase of interest. A Europium-labelled anti-tag antibody also binds to the kinase of interest. Simultaneous binding of the tracer and the antibody brings them into close proximity and upon excitation at 340 nm, triggers fluorescence resonance energy transfer (FRET) between the Europium donor fluorophore on the antibody and the Alexa Fluor® 647 acceptor on the tracer. The dual emission signal produced can be measured at 665 and 615 nm.
Compounds at a concentration of 3 mM are serially diluted (e.g. 10 μl 90 μl of 100% dimethyl sulfoxide (DMSO)) seven times in 96-well plates for a total of 8 dilution points. Each DMSO dilution is further diluted 1:100 in kinase buffer (e.g. 5 μl into 495 μl kinase buffer) containing 50 mM HEPES pH 7.5, 10 mM MgCl2, 1 mM EGTA, 0.01% Brij-35.
Each well in a 96-well Optiplate™ (Perkin Elmer 6005569) contains 30 μl of final volume per sample, including 10 μl compound at 3× the desired concentration, providing 10 μM at the final maximum concentration, 10 μl of kinase/antibody mixture at 3× the desired concentration of RAF recombinant kinases and antibody providing 5 nM final concentration of B-RAF^V600E kinase (Invitrogen PV3849) and 3 nM final concentration of C-RAF Y340D/Y341D kinase (Invitrogen PV3805) and 2 nM final concentration of Eu-anti-GST antibody (PV5594), and 10 μl of 3× the desired concentration of kinase tracer 178 (Invitrogen PV5593) providing final concentrations of 20 nM tracer for B-RAF^V600E kinase and 6 nM tracer for C-RAF kinase. The plates are incubated for 5 hours at room temperature and read on an EnVision plate reader (Perkin Elmer).
All data are analysed using the GraphPad Prism software package. Inhibition of tracer binding to the kinase of interest is assessed by determination of IC50 value, which is defined as the concentration of compound which decreased the level of FRET signal measured at 665 nm by 50%.

[3] = IC50 category, read-out: BRAF^V600E binding affinity
[4] = read-out: BRAF^V600E binding affinity IC50
[5] = IC50 category, read-out: CRAF binding affinity
[6] = read-out: CRAF binding affinity IC50

Structure (SMILES)	IC50 [1, 3] [nM]	IC50 [1, 4] [nM]	IC50 [2, 5] [nM]	IC50 [2, 6] [nM]
O=C1CCc2c(Oc3ccc4c(c3)CC(c3nc(-c5ccccc5)c[nH]3)CO4)ccnc2N1 (single isomer, unassigned) [Example 3A, 5-[3-(4-phenyl-1H-imidazol-2-yl)chroman-6-yl]oxy-3,4-dihydro-1H-1,8-naphthyridin-2-one]	< 4	1.5	< 4	1
O=C1CCc2c(Oc3ccc4c(c3)CC(c3nc(-c5ccccc5)c[nH]3)CO4)ccnc2N1 (stereo not drawn) [Example 3, 5-[3-(4-phenyl-1H-imidazol-2-yl)chroman-6-yl]oxy-3,4-dihydro-1H-1,8-naphthyridin-2-one]	< 4	0.8	< 4	0.6
O=C1CCc2c(Oc3ccc4c(c3)CC(c3nc(-c5ccccc5)c[nH]3)CO4)ccnc2N1 (stereo not drawn) [Example 3B, 5-[3-(4-phenyl-1H-imidazol-2-yl)chroman-6-yl]oxy-3,4-dihydro-1H-1,8-naphthyridin-2-one]	< 4	1.4	< 4	0.8
